Ab-14 heavy chain CDR variants: yeast mating affinities

The measurements come from Li et al. 2023 (doi:10.1038/s41467-023-39022-2) through the FLAb antibody collection.

Target peptide (SARS-CoV-2 spike, HR2 region): PDVDLGDISGINAS

Parent scFv Ab-14: VH joined to VL by a 15-residue (Gly4Ser)3 linker. Changes lie in the heavy chain CDRs alone.
VH: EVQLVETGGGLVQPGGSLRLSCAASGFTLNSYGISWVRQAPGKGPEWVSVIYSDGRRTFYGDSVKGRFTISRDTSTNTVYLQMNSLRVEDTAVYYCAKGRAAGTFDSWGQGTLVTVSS
VL: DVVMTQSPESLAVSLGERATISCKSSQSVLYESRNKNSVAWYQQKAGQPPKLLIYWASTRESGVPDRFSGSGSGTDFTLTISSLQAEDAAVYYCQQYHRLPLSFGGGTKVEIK

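The parent was found by panning a naive human phage display library on the peptide. These sequences belong to a second round, designed from the earlier measurements on random variants of the parent. Several design methods are mixed in this list. The scFvs were displayed on barcoded MATa yeast, the peptide on MATalpha yeast. Pairs that bind mate more often; barcode pairs of the diploids are counted by sequencing. Scores were corrected for input abundance and mapped to Kd with protein pairs of known affinity run in the same pool. There are six technical replicates.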

Variants are written as CDR1, CDR2 and CDR3 of the heavy chain (limits as in the source). Parent: GFTLNSYGIS, VIYSDGRRTFYGDSVK, GRAAGTFDS. Scale: log10 of Kd in nM, estimated from mating counts; low values are strong binders. Replicates are averaged; those with no signal do not enter the mean. "no signal" marks a missing value. The strain was present, yet no cells mated with the target were sequenced in any replicate, which points to weak or no binding.

| CDR-H1 | CDR-H2 | CDR-H3 | mean, log10 nM | seen in |
|---|---|---|---|---|
| GQDLNEYGIS | VIYADGRRQMYANPVK | GHQGGIKLD | no signal | 0/6 |
| GFDLEDYGIS | VIYADGMRTAYSDSVK | GNVAGTFDQ | -0.81 | 6/6 |
| GFDLNEYGIS | VIYADGRRTFYSDSVK | GVNAGTFDV | 0.21 | 6/6 |
| GFDLNSYGIS | VIYSDGKRTFYHDSVK | GRTAGTFDS | 0.45 | 6/6 |
| GFYLNSYGIS | VIYSDGRRTFYIDSVK | GQTAGTFDS | 1.77 | 2/6 |
| GFTLNQYGIS | VIYSDGKRTFYADSVK | GRAAGTFDS | 0.12 | 6/6 |
| GFTLNSYGIS | VIYSDGRRTFIDDSVK | GRAAGTFDS | 3.09 | 3/6 |
| GFSLNSYGIS | VIYSDGRRTFYTDDVK | GEAAGTFDS | 0.37 | 6/6 |
| GFSIDEYGIS | VIYADGMRTAYVESVK | GTIDENFTT | 4.07 | 1/6 |
| GFSLNSYGIS | VIYSDGRRTFYTDDVK | GQAAGTFDS | -0.78 | 4/6 |
| GFQLDSYGIS | VIYSDGRRTFYGDSVK | GRAAGTFDS | 0.95 | 5/6 |
| GFDLNSYGIS | VIYSDGRRTFYGDQVK | GMTAGTFDS | 1.23 | 6/6 |
| GVTLNSYGIS | VIYSDGERTFYGDSVK | GRLAGTFDS | 2.06 | 1/6 |
| GFTLNGYGIS | VIYSDGRRTFYSDSVK | GEAAGTFDS | 1.02 | 6/6 |
| GFELNSYGIS | VIYSDGQRTFYGDSVK | GRTAGTFDE | 1.07 | 6/6 |
| GFDLNEYGIS | VIYADGRRTFYSDSVK | GAVAGTFDI | -0.60 | 6/6 |
| GEDLQKYGIS | VIYADGQRQYYSDDVK | GQVAGHFLV | no signal | 0/6 |
| DFDLNSYGIS | VIYSDGRRTFYGDSVK | GRTAGTFDS | 0.38 | 6/6 |
| GFDLNEYGIS | VIYADGMRTQYADSVK | GNVAGTFDI | 0.06 | 5/6 |
| GFTLNEYPIS | VIKSDGRRTFYGDSVK | MRAAVTFDQ | 1.11 | 2/6 |
| GFSLNSYGIS | VIYSDGRRTFYGDSVK | GWAAGTFDT | 0.58 | 6/6 |
| GFDLNEYGIS | VIYADGMRTAYVDSVK | GEVAGTFDV | -0.75 | 6/6 |
| GFDLNEYGIS | VIYADGVRTAYADDVK | GENAGTFDI | -0.32 | 6/6 |
| GFTLNSYGIS | VIYSDGFRTFYGDSVK | GFAAGTFDS | no signal | 0/6 |
| GFSLNSYGIS | VIYSDGRRTFYADSVK | GRQAGTFDN | 0.65 | 6/6 |
| GFNLNSYGIS | VIYSDGRRTFYGDSVK | GRVAGTFDS | 1.10 | 12/12 |
| GFDLNSYGIS | VIYSDGRRTMYDDSVK | GRQAGTFDS | 0.68 | 6/6 |
| GFNLEEYGIS | VIYADGMRTAYTDKVK | GGLDDQEGY | no signal | 0/6 |
| GFSLNSYGIS | VIYSDGRRTMYGDSVK | GRGAGTFDS | no signal | 0/6 |
| GFNLAEYGIS | VIYADGSRVAYADNVK | GLNGKIGDL | no signal | 0/6 |
| GFTLNQYGIS | VIYSDGRRTSYGDQVK | GIAAGTFDS | 1.06 | 6/6 |
| GFSLNDYGIS | VIYSDGRRTFYGDSVK | GRTAGTFDK | 0.33 | 6/6 |
| GFTLNSYGIS | VIYSDGRRTFYGDSVK | GRLAGVFDS | no signal | 0/6 |
| GFDLNSYGIS | VIYSDGRRTFYGDSVK | GRTAGSFKS | no signal | 0/6 |
| GFDLGEYGIS | VIYADGMRTACKTAVK | GTFSGTLDV | no signal | 0/6 |
| GFDIDEYGIS | VIYADGRRTFYADSVK | GTNAGTFDS | -0.05 | 6/6 |
| GKDIEEYGVS | VIYADGKRNAYANKVK | GKNAGSFVD | no signal | 0/6 |
| GFDLNEYGIS | VIYADGSRTFYADSVK | GEAAGSFDL | 0.62 | 6/6 |
| GFDLDEYGIS | VIYADGMRTAYADKVK | GNNAGTFDI | 0.41 | 6/6 |
| GFDLDEYGIS | VIYADGRRTFYADSVK | GELAGTFFQ | -0.67 | 5/6 |
| GFSLNSYGIS | VIYSDGRRTFYSDSVK | GEAAGTFDT | 0.50 | 6/6 |
| GYTLNSYGIS | VIYFDGRRTFYGDSVK | GRNAGTFHS | no signal | 0/6 |
| GFDLSEYGIS | VIYADGRRTFYTDSVK | GEVAGTFDE | -0.19 | 6/6 |
| GFTLNSYGIS | VIYADGRRTFYGDSVK | GRAAGNNKW | -0.06 | 6/6 |
| GFDLDEYGIS | VIYADGSRTAYADNVK | GENAGTFDV | 0.20 | 6/6 |
| GFTLNSYSIS | VIYSDGRRTFYDDSVK | GQLAGTFDF | no signal | 0/6 |

Picked from the list: the 7 lowest averages where every replicate gave a value.

| CDR-H1 | CDR-H2 | CDR-H3 | mean, log10 nM | seen in |
|---|---|---|---|---|
| GFDLEDYGIS | VIYADGMRTAYSDSVK | GNVAGTFDQ | -0.81 | 6/6 |
| GFDLNEYGIS | VIYADGMRTAYVDSVK | GEVAGTFDV | -0.75 | 6/6 |
| GFDLNEYGIS | VIYADGRRTFYSDSVK | GAVAGTFDI | -0.60 | 6/6 |
| GFDLNEYGIS | VIYADGVRTAYADDVK | GENAGTFDI | -0.32 | 6/6 |
| GFDLSEYGIS | VIYADGRRTFYTDSVK | GEVAGTFDE | -0.19 | 6/6 |
| GFTLNSYGIS | VIYADGRRTFYGDSVK | GRAAGNNKW | -0.06 | 6/6 |
| GFDIDEYGIS | VIYADGRRTFYADSVK | GTNAGTFDS | -0.05 | 6/6 |

Background: pairings of all heavy chain designs with three empty control strains gave a value in 1% of cases (median 2.08, 5th percentile 0.84). Values in that range, when seen in few replicates, are hard to tell from nonspecific mating. Some sequences occur more than once in the pool; their replicates are pooled. Of ten entries with the parent sequence, four were seen in most replicates (averages 0.34 to 2.37), three in one and three in none, so single entries are noisy. In the paper, a design with two or fewer of six values counts as a poor binder. The range of this assay differs from that of the first round, and the authors advise against merging the two.